The values that follow are results of earlier work, collected in patent publication US10150760B2, “Compounds for use in preparing heterocyclic triazole agonists of the APJ receptor” (AMGEN INC., priority 2016, dated 2018).

The conditions of this series: cited from earlier work.

On to Apelin-13, for which the plasma half-life is on record as less than 5 min.
